Earlier results as cited in patent US20080247987A1, “Block Copolymer Compositions and Uses Thereof” (ANGIOTECH INTERNATIONAL AG, priority 2005, published 2008).

Details: cited from earlier work

For insulin, which “solubility in water” value is on record?
Its value is “practically insoluble in water”.
